By UniProt entry, the sequences of proteins in these tests, tags left out.
UniProt Q00534, whole entry: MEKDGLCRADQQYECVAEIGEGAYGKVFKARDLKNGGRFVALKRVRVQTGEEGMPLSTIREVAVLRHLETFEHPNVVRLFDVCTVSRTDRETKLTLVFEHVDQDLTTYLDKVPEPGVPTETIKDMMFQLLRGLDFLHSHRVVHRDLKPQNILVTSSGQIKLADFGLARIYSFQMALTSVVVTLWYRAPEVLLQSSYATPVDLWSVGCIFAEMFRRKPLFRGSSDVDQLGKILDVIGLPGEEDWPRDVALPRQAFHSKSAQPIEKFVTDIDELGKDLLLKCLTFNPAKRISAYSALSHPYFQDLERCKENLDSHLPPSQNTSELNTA
UniProt O15111, whole entry: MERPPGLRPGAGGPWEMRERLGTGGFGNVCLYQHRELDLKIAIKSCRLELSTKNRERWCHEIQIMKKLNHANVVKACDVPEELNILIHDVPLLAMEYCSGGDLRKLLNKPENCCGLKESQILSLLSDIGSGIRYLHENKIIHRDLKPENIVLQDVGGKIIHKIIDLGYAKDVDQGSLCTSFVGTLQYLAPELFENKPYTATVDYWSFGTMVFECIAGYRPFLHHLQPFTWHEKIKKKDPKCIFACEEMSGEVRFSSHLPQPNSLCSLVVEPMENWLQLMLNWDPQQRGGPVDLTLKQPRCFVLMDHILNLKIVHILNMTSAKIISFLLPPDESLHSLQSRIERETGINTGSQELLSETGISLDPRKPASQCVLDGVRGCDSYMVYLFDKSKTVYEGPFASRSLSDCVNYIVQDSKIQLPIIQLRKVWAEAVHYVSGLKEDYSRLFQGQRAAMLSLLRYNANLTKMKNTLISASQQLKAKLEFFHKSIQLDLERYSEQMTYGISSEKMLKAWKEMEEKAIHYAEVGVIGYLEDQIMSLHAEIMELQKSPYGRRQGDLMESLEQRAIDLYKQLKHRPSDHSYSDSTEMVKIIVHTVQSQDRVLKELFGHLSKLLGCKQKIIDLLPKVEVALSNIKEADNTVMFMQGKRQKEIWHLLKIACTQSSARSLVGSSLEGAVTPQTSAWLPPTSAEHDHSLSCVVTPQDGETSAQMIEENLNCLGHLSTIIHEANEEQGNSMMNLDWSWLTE
UniProt Q8TF76, whole entry: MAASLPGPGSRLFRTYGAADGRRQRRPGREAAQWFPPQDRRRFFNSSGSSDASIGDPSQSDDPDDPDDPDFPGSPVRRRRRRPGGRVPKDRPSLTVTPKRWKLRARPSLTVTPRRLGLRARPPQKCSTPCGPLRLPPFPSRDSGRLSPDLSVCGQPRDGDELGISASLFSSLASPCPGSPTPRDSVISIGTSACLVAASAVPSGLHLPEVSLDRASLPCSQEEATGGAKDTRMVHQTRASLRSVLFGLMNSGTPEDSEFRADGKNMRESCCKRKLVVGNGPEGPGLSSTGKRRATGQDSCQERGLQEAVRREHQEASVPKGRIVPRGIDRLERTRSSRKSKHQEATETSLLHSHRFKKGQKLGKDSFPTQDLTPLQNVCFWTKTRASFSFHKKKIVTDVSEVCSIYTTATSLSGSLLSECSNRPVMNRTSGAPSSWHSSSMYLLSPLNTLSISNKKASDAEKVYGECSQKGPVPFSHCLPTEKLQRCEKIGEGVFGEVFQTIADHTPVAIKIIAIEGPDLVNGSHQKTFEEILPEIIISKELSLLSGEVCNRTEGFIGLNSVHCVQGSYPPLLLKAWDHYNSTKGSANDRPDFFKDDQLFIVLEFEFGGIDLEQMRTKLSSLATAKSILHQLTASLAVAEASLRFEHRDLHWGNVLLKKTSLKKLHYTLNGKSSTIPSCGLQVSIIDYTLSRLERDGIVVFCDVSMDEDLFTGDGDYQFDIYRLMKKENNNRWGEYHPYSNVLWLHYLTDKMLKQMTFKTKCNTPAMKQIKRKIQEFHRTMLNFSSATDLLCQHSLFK
UniProt Q9UBF8, whole entry: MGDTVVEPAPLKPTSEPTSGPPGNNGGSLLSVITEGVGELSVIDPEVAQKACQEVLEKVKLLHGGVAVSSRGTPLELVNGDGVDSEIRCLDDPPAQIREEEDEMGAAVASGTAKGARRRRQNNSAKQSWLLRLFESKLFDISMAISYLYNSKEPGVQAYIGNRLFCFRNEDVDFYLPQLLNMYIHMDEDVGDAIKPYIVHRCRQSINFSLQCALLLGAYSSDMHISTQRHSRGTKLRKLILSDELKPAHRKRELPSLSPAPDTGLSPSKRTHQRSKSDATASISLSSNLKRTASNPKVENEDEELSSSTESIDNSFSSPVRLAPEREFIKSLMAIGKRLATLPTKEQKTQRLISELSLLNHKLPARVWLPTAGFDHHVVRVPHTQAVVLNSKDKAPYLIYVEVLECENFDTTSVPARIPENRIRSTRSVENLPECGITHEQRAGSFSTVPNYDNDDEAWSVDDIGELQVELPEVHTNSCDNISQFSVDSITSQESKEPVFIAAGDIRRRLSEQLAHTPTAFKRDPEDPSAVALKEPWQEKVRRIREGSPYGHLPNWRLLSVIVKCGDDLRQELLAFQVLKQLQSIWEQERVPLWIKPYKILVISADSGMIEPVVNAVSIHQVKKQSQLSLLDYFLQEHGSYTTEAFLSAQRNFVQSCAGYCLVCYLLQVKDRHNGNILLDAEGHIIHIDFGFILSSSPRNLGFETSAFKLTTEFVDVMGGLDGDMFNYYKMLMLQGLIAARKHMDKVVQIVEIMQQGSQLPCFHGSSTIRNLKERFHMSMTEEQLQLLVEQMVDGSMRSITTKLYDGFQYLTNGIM
UniProt P48426, whole entry: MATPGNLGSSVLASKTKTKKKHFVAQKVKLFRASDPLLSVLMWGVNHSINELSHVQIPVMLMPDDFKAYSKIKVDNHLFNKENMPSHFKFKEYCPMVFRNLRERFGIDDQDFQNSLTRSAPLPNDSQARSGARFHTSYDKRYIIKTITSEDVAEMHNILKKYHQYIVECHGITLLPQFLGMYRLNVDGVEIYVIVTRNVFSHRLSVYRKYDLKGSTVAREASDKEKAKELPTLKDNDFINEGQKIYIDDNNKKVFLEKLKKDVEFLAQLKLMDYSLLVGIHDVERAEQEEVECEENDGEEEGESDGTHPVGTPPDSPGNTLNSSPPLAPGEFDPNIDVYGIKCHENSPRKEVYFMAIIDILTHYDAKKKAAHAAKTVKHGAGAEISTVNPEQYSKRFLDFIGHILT
UniProt Q9NYA1, whole entry: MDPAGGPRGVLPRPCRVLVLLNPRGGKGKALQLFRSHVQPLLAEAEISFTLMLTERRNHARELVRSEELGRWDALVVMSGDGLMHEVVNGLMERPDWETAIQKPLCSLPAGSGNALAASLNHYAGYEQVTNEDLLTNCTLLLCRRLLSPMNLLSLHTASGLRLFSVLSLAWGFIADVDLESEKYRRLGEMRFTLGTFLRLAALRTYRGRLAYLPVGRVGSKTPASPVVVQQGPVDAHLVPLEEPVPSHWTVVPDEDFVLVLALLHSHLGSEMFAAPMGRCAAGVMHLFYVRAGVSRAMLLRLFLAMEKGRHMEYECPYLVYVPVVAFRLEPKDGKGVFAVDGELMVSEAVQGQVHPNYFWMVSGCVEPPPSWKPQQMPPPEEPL
UniProt Q8NEB9, whole entry: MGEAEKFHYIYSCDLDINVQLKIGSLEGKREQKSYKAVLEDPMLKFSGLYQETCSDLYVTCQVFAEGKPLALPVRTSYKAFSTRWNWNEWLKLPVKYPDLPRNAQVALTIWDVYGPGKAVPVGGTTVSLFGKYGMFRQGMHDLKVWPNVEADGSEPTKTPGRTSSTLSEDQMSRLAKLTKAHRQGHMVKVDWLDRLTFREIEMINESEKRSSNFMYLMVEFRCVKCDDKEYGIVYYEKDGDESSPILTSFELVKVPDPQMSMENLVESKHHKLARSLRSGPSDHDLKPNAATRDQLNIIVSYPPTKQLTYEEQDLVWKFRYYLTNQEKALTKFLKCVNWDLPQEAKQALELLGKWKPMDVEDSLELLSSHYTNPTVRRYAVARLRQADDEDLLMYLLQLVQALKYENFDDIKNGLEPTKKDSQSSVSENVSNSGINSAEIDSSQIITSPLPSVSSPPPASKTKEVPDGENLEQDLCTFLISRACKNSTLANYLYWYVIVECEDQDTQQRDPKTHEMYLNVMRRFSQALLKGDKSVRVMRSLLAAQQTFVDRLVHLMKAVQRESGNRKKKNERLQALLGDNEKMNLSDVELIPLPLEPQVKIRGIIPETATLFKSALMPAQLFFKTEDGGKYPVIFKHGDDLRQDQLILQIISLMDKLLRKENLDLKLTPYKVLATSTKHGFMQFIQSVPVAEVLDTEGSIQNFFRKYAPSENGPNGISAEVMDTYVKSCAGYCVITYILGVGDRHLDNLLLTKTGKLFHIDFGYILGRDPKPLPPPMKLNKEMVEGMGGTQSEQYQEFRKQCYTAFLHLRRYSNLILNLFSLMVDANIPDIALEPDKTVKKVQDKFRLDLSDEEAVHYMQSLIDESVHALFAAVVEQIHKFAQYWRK
UniProt P52564, whole entry: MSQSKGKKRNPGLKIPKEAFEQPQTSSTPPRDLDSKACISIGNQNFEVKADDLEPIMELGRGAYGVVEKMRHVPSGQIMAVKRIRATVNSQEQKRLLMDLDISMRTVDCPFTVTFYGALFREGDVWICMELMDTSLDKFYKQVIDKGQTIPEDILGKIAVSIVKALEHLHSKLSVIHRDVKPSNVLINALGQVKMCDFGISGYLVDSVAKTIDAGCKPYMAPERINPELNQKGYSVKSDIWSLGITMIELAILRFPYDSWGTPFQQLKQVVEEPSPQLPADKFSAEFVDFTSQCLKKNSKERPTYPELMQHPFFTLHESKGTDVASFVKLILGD
UniProt O95382, whole entry: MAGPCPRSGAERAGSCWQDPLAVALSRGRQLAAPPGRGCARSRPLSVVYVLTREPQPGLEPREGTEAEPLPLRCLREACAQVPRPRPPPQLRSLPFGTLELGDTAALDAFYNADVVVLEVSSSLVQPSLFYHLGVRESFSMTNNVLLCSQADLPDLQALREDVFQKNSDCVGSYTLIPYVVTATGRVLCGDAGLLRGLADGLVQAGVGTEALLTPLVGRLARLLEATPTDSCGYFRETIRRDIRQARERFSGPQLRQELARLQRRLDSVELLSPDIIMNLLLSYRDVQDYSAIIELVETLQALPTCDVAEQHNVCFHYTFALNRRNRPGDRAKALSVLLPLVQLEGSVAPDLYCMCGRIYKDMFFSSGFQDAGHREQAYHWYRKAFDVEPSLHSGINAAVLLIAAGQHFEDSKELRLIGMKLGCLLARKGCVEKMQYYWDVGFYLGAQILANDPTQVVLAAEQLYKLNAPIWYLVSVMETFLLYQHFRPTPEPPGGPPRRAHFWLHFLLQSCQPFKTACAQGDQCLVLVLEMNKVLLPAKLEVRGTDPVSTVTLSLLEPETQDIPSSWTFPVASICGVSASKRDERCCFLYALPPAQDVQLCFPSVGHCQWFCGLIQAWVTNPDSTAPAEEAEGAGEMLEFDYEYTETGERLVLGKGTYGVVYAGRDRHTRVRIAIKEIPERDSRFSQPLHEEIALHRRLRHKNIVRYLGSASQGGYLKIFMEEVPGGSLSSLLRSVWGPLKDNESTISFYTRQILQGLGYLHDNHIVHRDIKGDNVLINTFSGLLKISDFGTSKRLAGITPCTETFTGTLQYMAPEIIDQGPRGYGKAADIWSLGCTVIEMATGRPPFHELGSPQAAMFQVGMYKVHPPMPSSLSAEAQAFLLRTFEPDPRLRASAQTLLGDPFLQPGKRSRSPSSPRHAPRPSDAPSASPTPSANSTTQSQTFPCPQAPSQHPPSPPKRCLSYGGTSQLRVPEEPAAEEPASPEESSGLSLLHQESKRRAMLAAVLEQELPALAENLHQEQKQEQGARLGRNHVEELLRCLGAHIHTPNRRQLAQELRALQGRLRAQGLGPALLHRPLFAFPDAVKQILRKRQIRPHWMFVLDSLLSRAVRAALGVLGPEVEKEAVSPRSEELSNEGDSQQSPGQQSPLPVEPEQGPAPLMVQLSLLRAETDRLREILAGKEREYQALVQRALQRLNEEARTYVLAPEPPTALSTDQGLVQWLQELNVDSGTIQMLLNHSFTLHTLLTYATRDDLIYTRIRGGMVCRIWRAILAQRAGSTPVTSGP
UniProt Q99640, whole entry: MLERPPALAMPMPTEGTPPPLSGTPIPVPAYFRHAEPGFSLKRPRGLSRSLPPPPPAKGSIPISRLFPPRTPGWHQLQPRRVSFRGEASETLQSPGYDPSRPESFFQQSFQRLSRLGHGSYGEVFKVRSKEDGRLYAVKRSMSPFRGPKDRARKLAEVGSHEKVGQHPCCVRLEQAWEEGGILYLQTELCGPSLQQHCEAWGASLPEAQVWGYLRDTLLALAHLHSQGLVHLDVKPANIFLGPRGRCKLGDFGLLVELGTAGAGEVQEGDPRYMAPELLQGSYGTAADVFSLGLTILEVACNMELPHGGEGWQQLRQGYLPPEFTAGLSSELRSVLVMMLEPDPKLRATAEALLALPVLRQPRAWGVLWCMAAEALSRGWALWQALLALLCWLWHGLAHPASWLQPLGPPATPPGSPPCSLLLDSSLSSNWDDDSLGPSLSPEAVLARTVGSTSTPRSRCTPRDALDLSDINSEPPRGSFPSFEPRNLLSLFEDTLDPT

In patent publication US20260384438A1, “PYRROLOPYRIMIDINE CARBOXAMIDES” (published 2026):

Tests used:
[1] = system: human bone marrow derived CD34+ hematopoietic stem and progenitor cells; test: In vitro hematopoietic stem and progenitor cell assay (bone marrow toxicity); conditions: read-out: MEAN IC50 VALUE IN PRIMARY HSPC (± STANDARD DEVIATION); CD34+ HSPC induced to erythroid lineage, 5 days
[2] = system: PKMYT1 wildtype SKOV3 cells; test: In vitro efficacy in combination with exatecan, PKMYT1 wildtype SKOV3; conditions: 3-10 μM, WT compared to KO cells, exatecan 1 nM, 7 days
[3] = target: CDK6 Cyclin D1 (Homo sapiens, UniProt Q00534); test: Kinase profiling, Adapta; conditions: 1 μM, KmATP
[4] = target: CHUK(IKK alpha) (Homo sapiens, UniProt O15111); test: Kinase profiling, Adapta; conditions: 1 μM, KmATP
[5] = target: GSG2 (Haspin) (Homo sapiens, UniProt Q8TF76); test: Kinase profiling, Adapta; conditions: 1 μM, KmATP
[6] = target: PI4KA (Homo sapiens, UniProt P42356); test: Kinase profiling, Adapta; conditions: 1 μM, KmATP
[7] = target: PI4KB (Homo sapiens, UniProt Q9UBF8); test: Kinase profiling, Adapta; conditions: 1 μM, KmATP
[8] = target: PIK3C2A (Homo sapiens, UniProt O00443); test: Kinase profiling, Adapta; conditions: 1 μM, KmATP
[9] = target: PIK3CA/PIK3R1 (Homo sapiens, UniProt P42336); test: Kinase profiling, Adapta; conditions: 1 μM, KmATP
[10] = target: PIK3CB/PIK3R2 (Homo sapiens, UniProt P42338); test: Kinase profiling, Adapta; conditions: 1 μM, KmATP
[11] = target: PIK3CG (p110 gamma) (Homo sapiens, UniProt P48736); test: Kinase profiling, Adapta; conditions: 1 μM, KmATP
[12] = target: PIP4K2A (Homo sapiens, UniProt P48426); test: Kinase profiling, Adapta; conditions: 1 μM, KmATP
[13] = target: PIP5K 1B (Homo sapiens, UniProt O14986); test: Kinase profiling, Adapta; conditions: 1 μM, KmATP
[14] = target: SPHK1 (Homo sapiens, UniProt Q9NYA1); test: Kinase profiling, Adapta; conditions: 1 μM, KmATP
[15] = target: SPHK2 (Homo sapiens, UniProt Q9NRA0); test: Kinase profiling, Adapta; conditions: 1 μM, KmATP
[16] = target: CDK4 Cyclin D1 (Homo sapiens, UniProt P11802); test: Kinase profiling, Adapta *Mn*; conditions: 1 μM, KmATP
[17] = target: CDK4 Cyclin D3 (Homo sapiens, UniProt P11802); test: Kinase profiling, Adapta *Mn*; conditions: 1 μM, KmATP
[18] = target: PI4K2A (Homo sapiens, UniProt Q9BTU6); test: Kinase profiling, Adapta *Mn*; conditions: 1 μM, KmATP
[19] = target: PI4K2B (Homo sapiens, UniProt Q8TCG2); test: Kinase profiling, Adapta *Mn*; conditions: 1 μM, KmATP
[20] = target: PIK3C3 (hVPS34) (Homo sapiens, UniProt Q8NEB9); test: Kinase profiling, Adapta *Mn*; conditions: 1 μM, KmATP
[21] = target: ACVR2A (Homo sapiens, UniProt P27037); test: KAT chemical proteomics
[22] = target: CSK (Homo sapiens, UniProt P41240); test: KAT chemical proteomics
[23] = target: DAPK2 (Homo sapiens, UniProt Q9UIK4); test: KAT chemical proteomics
[24] = target: DAPK3 (Homo sapiens, UniProt O43293); test: KAT chemical proteomics
[25] = target: EPHA7 (Homo sapiens, UniProt Q15375); test: KAT chemical proteomics
[26] = system: ERCC2; test: KAT chemical proteomics
[27] = target: FAM20B (Homo sapiens, UniProt O75063); test: KAT chemical proteomics
[28] = target: MAP2K6 (Homo sapiens, UniProt P52564); test: KAT chemical proteomics
[29] = target: MAP3K6 (Homo sapiens, UniProt O95382); test: KAT chemical proteomics
[30] = target: MAPK1 (Homo sapiens, UniProt P28482); test: KAT chemical proteomics
[31] = target: MERTK (Homo sapiens, UniProt Q12866); test: KAT chemical proteomics
[32] = target: MKNK1 (Homo sapiens, UniProt Q9BUB5); test: KAT chemical proteomics
[33] = target: PASK (Homo sapiens, UniProt Q96RG2); test: KAT chemical proteomics
[34] = target: PRKAA1 (Homo sapiens, UniProt Q13131); test: KAT chemical proteomics
[35] = target: RPS6KA5 (Homo sapiens, UniProt O75582); test: KAT chemical proteomics
[36] = target: STK10 (Homo sapiens, UniProt O94804); test: KAT chemical proteomics
[37] = target: TYRO3 (Homo sapiens, UniProt Q06418); test: KAT chemical proteomics
[38] = target: PKMYT1 (Homo sapiens, UniProt Q99640); test: NanoBRET target engagement in HEK293T cells, PKMYT1; conditions: read-out: PKMYT1 INHIBITION IC50, 2 h

## Cc1nc(C(F)(F)F)c2c(C(N)=O)c(N)n(-c3c(C)ccc(O)c3C)c2n1 (single isomer, unassigned)
[1]
  IC50: 30.2 µM
[2]
  combination efficacy with exatecan: more pronounced in vitro efficacy for the combination
[3]
  MEAN INHIBITION: 9.064%
[4]
  MEAN INHIBITION: 11.354%
[5]
  MEAN INHIBITION: 6.522%
[6]
  MEAN INHIBITION: 2.590%
[7]
  MEAN INHIBITION: 5.927%
[8]
  MEAN INHIBITION: −0.965%
[9]
  MEAN INHIBITION: 0.944%
[10]
  MEAN INHIBITION: −1.195%
[11]
  MEAN INHIBITION: −15.516%
[12]
  MEAN INHIBITION: 0.823%
[13]
  MEAN INHIBITION: −11.784%
[14]
  MEAN INHIBITION: −4.651%
[15]
  MEAN INHIBITION: −6.141%
[16]
  MEAN INHIBITION: 7.329%
[17]
  MEAN INHIBITION: 5.195%
[18]
  MEAN INHIBITION: −3.804%
[19]
  MEAN INHIBITION: 0.544%
[20]
  MEAN INHIBITION: −3.447%
[21]
  RB50: 62.7 nM
[22]
  RB50: >50 µM
[23]
  RB50: >50 µM
[24]
  RB50: >50 µM
[25]
  RB50: >50 µM
[26]
  RB50: >50 µM
[27]
  RB50: >50 µM
[28]
  RB50: >50 µM
[29]
  RB50: >50 µM
[30]
  RB50: >50 µM
[31]
  RB50: >50 µM
[32]
  RB50: >50 µM
[33]
  RB50: >50 µM
[34]
  RB50: >50 µM
[35]
  RB50: >50 µM
[36]
  RB50: >50 µM
[37]
  RB50: >50 µM
[38]
  IC50: 0.009 µM
